We go through one substance from patent publication US20100304465.

Data set [1] has as its system delta-plasminogen.
Data set [2] deals with full-length plasminogen.

For urokinase, in data set [1], the Km (urokinase activation, S-2251 coupled assay) was 30 µM; the “fold change of Km for urokinase activation against plasminogen” value is on record as “approximately 30-fold higher than for plasminogen”; the kcat (urokinase activation, S-2251 coupled assay) stood at 1.33 s⁻¹; the kcat/Km (urokinase activation, S-2251 coupled assay) was found to be 44500 M⁻¹ s⁻¹. In data set [2], the Km (urokinase activation, S-2251 coupled assay) came out at 1.2 µM; the kcat (urokinase activation, S-2251 coupled assay) stood at 0.0383 s⁻¹; the kcat/Km (urokinase activation, S-2251 coupled assay) was found to be 32000 M⁻¹ s⁻¹.
